Assay results from publication PMC4319893, “Targeting Protein-Protein Interactions with Trimeric Ligands: High Affinity Inhibitors of the MAGUK Protein Family” (PLoS ONE, 2015).

By UniProt entry, the sequences of proteins in these tests, tags left out. Residues count along the entry.
UniProt Q9P021, whole entry: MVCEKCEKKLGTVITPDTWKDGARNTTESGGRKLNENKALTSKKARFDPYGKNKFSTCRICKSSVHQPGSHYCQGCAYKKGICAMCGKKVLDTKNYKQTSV
UniProt P78352, 62-154: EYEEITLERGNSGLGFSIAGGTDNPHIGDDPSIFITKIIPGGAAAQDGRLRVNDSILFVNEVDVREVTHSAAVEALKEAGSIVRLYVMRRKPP

Target: CRIPT (Homo sapiens) (UniProt Q9P021)

- Ki: 97 µM
Substance: PSD-95 PDZ1 (from UniProt P78352)
